The values that follow come from PubChem BioAssay AID2112 (National Center for Advancing Translational Sciences (NCATS), 2009).

SMILES strings stand for the structures. Several values for one entry are separate records, joined by “and”; a condition that tells them apart may be missing. Equal entries are not always repeated. The entries are a selection whose mix differs from that of the whole data set. Activity calls are given as the source filed them. Calls follow the shape of the dose curve; as a rule, active = well fitted inhibition curve with a large enough effect; inconclusive = small, poorly fitted or top-dose-only effect, or effect the other way, or another doubt; inactive = no such curve, though single readings can be large or run the other way.

The assay concerns the target Lysosomal alpha-glucosidase (Homo sapiens) (UniProt P10253). As to the kind of experiment: qHTS Assay for Inhibitors and Activators of Human alpha-Glucosidase From Spleen Homogenate.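 Also: 0% = enzyme with vehicle and -100% = no enzyme basal signal.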 Conditions: 4-MU-alpha-glucoside fluorescence; at 79.9 µM (top of the series). An excerpt:
NIH Chemical Genomics Center [NCGC] NIH Molecular Libraries Probe Production Centers Network [MLPCN] MLPCN Grant: R03 MH084841-01 Assay Submitter (PI): Wei Zheng NCGC Assay Overview: Alpha-glucosidase is responsible for the hydrolysis of terminal, non-reducing 1,4-linked alpha-D-glucose residues, which releases alpha-D-glucose. It is a lysosomal hydrolase that is required for the degradation of a small percentage (1-3%) of cellular glycogen in humans. Deficiency of this enzyme results in glycogen-storage disease type II (GSDII), also referred to as Pompe disease, an autosomal recessive disorder. […]
NCGC Assay Protocol Summary: This is a fluorogenic enzyme assay with 4-methylumbelliferyl-alpha-D-glucopyranoside as the substrate and human spleen homogenate containing alpha-glucosidase as the enzyme preparation. Upon hydrolysis of this fluorogenic substrate, the resulting product, 4-methylumbelliferone (which excites at 365 nm and emits at 440 nm) can be detected by a fluorescence plate reader. […] The AC50 values were determined from concentration-response data modeled with the standard Hill equation. […] (3) Add 2 ul of substrate (1 mM final) (4) Incubate at 37 C for 40 min (5) Add 2 ul stop solution (1M NaOH and 1M Glycine mixture, pH 10) (6) Detect the assay plate in a ViewLux plate reader (PerkinElmer) with Ex=365 nm and Em=440nm. […]
As to `CN(CCCl)CCCl`, the activity change, negative = inhibition was inactive: 3.53% and inactive: -0.67%.

On to `O=[N+]([O-])C(Cl)(Cl)Cl`, for which the activity change, negative = inhibition is inactive: 3.38%.
